Source: patent US8852552B2, “Agents and methods for visualizing analytes” (priority 2010, dated 2014)

System: Biotin-His-Arg-Trp-Cys-Cys-Pro-Gly-Cys-Cys-Lys-Thr-Phe [SEQ ID NO 2]
Assay: Surface plasmon resonance (BiaCore 3000) binding to immobilised biotinylated tetracysteine peptide

With “2,5-di-(1,3,2-Dithiarsolan-2yl)-9(4-fluorophenyl)-6-methoxy-3-fluorone” the “steady state level of bound compound” value (100 μM injected at 5 microlitres/min for 5 min, 0.01 HEPES pH7.4, 0.15 M NaCl) was “about 440 RU”, the association rate (100 μM injection) was “high” and the dissociation rate (during wash with 0.01 HEPES pH7.4, 0.15 M NaCl) was “very low”. The “affinity of interaction (in words)” value (inferred from association and dissociation rates) was “high affinity interaction”.
